B1: Nuclear protein localization protein 4 homolog (Homo sapiens), Q8TAT6 (parent)
chain: MAESIIIRVQSPDGVKRITATKRETAATFLKKVAKEFGFQNNGFSVYINRNKTGEITASSNKSLNLLKIKHGDLLFLFPSSLAGPSSEMETSVPPGFKVFGAPNVVEDEIDQYLSKQDGKIYRSRDPQLCRHGPLGKCVHCVPLEPFDEDYLNHLEPPVKHMSFHAYIRKLTGGADKGKFVALENISCKIKSGCEGHLPWPNGICTKCQPSAITLNRQKYRHVDNIMFENHTVADRFLDFWRKTGNQHFGYLYGRYTEHKDIPLGIRAEVAAIYEPPQIGTQNSLELLEDPKAEVVDEIAAKLGLRKVGWIFTDLVSEDTRKGTVRYSRNKDTYFLSSEECITAGDFQNKHPNMCRLSPDGHFGSKFVTAVATGGPDNQVHFEGYQVSNQCMALVRDECLLPCKDAPELGYAKESSSEQYVPDVFYKDVDKFGNEITQLARPLPVEYLIIDITTTFPKDPVYTFSISQNPFPIENRDVLGETQDFHSLATYLSQNTSSVFLDTISDFHLLLFLVTNEVMPLQDSISLLLEAVRTRNEELAQTWKRSEQWATIEQLCSTVGGQLPGLHEYGAVGGSTHTATAAMWACQHCTFMNQPGTGHCEMCSLPRT

Variants of: B1
Settings: with tera_human VCP

effect of a mutation on the interaction	Variant
disrupting interaction strength	I6A;R8A;R17A;R50A
disrupting interaction strength	I6A;R8A;R17A
disrupting interaction strength	I6A;R8A
disrupting interaction strength	R50A

From IntAct's records for PubMed 26471729
